This is a selection; strong and weak results do not stand in their true shares. Activity calls are given as the source filed them.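 How the source made its calls: active means potentiation over 3 SD above the plate norm (cut at about 30% in these data); inactive means the rest.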
Biological target: D(2) dopamine receptor (Homo sapiens) (UniProt P14416)
Assay: HTS Assay for Positive Allosteric Modulators of the Human D2 Dopamine Receptor: Primary Screen for Potentiators; further: 0% is about no effect
Settings: HEK293 T-REx D2, calcium flux, EC20 dopamine potentiation; at 10 µM; stronger effect = higher value
Outline: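 Calcium flux readout, no-wash dye, 1 read/s. Inducible HEK293 Trex D2 line, overnight 30 C. Compound alone 180 s (agonist flags), then EC20 dopamine, another 180 s to score potentiation.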

The chains behind the UniProt entries cited, without tags or fusion partners.
UniProt P14416, whole entry, looked up: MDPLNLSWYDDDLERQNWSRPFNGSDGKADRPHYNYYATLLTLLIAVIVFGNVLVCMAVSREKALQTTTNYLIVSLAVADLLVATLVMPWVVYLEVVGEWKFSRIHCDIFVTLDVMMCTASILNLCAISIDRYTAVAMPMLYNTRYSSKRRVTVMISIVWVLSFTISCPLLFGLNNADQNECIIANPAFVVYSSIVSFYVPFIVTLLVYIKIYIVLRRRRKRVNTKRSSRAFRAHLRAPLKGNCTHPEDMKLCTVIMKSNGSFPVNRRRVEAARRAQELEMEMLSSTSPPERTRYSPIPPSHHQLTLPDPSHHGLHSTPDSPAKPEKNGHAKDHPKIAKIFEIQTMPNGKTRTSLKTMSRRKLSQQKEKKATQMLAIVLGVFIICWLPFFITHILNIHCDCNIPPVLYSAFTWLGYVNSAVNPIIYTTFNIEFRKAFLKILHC

Structure (SMILES)	potentiation
CN(C)C1(CNC(=O)c2ccc(Cl)c(S(N)(=O)=O)c2)CCCCC1	inactive: -14.2%
c1nnnn1CCn1cnnn1	inactive: -2.96%
CC(C)C(=O)NC(Sc1ccccc1)C(Cl)(Cl)Cl (stereo unspecified)	inactive: -7.54%
O=P(Nc1nccs1)(c1ccccc1)c1ccccc1	inactive: -3.24%
CC(C)/C=N\N=C(\N)N[N+](=O)[O-]	inactive: 7.11%
CN(C(=O)Cc1ccc(Cl)c(Cl)c1)[C@@H]1CCCC[C@H]1N1CCCC1	inactive: -9.16%
O=[As](O)(c1ccccc1Br)c1ccccc1Br	inactive: 10%
COc1ccccc1CNC(=O)COC(=O)C(O)(c1ccccc1)c1ccccc1	inactive: -7.23%
Clc1n[nH]nc1-c1nn[nH][15n]1	inactive: -2.56%
CC(C)(C)C(=O)NC(Sc1ncccn1)C(Cl)(Cl)Cl (stereo unspecified)	inactive: -5.13%
O=P1(Nc2ccccn2)COc2ccccc2OC1	inactive: 13.7%
CCC1=CC2Cc3nc4ccc(Cl)cc4c(N)c3C(C1)C2 (stereo unspecified)	inactive: -0.926%
CCOP(=O)(NC(=NC(C)c1ccccc1)NC(C)c1ccccc1)OCC (stereo unspecified)	inactive: -0.207%
CCOP(=O)(Nc1ccc(C)cn1)OCC	inactive: 3.34%
Nc1cccc([As](=O)(O)c2ccccc2)c1	inactive: -1.44%
O=P1(Nc2ccc(Br)cn2)COc2ccccc2OC1	inactive: -22.1%
O=[As](O)(c1cccs1)c1cccs1	inactive: 1.79%
Cc1ccc(OCC(=O)OC2CN3CCC2CC3)cc1 (stereo unspecified)	inactive: 4.05%
O=P1(Nc2ncccn2)COc2ccccc2OC1	inactive: -2.66%
CN(C)C1(CNC(=O)c2ccc(S(C)(=O)=O)cc2)CCCCC1	inactive: -4.22%
O=C(/C=C/c1ccccc1)OC1CN2CCC1CC2 (stereo unspecified)	inactive: -2.61%
Cc1nn(-c2ccccc2)c2c1P(=O)(N1CCOCC1)N(C)C(c1ccccc1)=N2 (stereo unspecified)	inactive: -2.38%
CC1CCC(C(C)C)C(OP(=O)(Nc2ccccn2)c2ccccc2)C1 (stereo unspecified)	inactive: 9.63%
Cc1ccc(C(=O)OC2CN3CCC2CC3)cc1 (stereo unspecified)	inactive: 9.1%

Structure (SMILES)	potentiation
N#CCCN(C(=O)COC(=O)C(O)(c1ccccc1)c1ccccc1)c1ccc(F)cc1	inactive: -4.48%
CN(C(=O)Cc1ccccc1)[C@@H]1CC[C@]2(CCCO2)C[C@H]1N1CCCC1	inactive: 4.66%
CCOP1(=S)c2c(C)nn(CCC#N)c2N=C(c2ccc(F)cc2)N1C (stereo unspecified)	inactive: -7.35%
O=[N+]([O-])c1ccc2c(c1)nnn2O	inactive: 1.35%
NC(=O)Nc1ccc([As](=O)(O)O)cc1	inactive: -5.03%
Nc1ccccc1[As](=O)(O)c1ccccc1	inactive: 0.306%
O=C(O)COc1ccc([As](=O)(O)O)cc1[N+](=O)[O-]	inactive: 10.1%
CCOP1(=S)c2c(C)nn(CCC#N)c2N=C(c2ccccc2F)N1C (stereo unspecified)	inactive: 4.51%
O=P(Nc1nccs1)(c1ccccc1)c1nc2ccccc2s1 (stereo unspecified)	inactive: 9.65%
CS(=O)(=O)c1cc([N+](=O)[O-])c2no[n+]([O-])c2c1	inactive: -11%
COc1cc(C2NCCC3(OCCO3)C2(C)C)cc(OC)c1OC (stereo unspecified)	inactive: -0.179%
CCOP(=O)(Nc1cccc2ccccc12)OCC	inactive: 2.71%
Nc1cccc2c([As](=O)(O)O)cccc12	inactive: 14.1%
Cc1ccc(NCCc2c([N+](=O)[O-])cc([N+](=O)[O-])cc2[N+](=O)[O-])cc1	inactive: 11.1%
CCCOP(=S)(Nc1nc(N)cc(=O)[nH]1)OCCC	inactive: 10.8%
O=[As](O)(c1cccc(O)c1)c1cccc(O)c1	inactive: -10.3%
Cc1cccc(OCC(=O)OC2CN3CCC2CC3)c1 (stereo unspecified)	inactive: 4.3%
O=C(OC1CN2CCC1CC2)c1ccc(Cl)cc1 (stereo unspecified)	inactive: 0.726%
COc1cc(C(=O)NCC2(N3CCOCC3)CCCCC2)cc(Cl)c1OC(C)C	inactive: -16.5%
O=[As](O)(O)c1cccnc1	inactive: 5.53%
CS(=O)(=O)c1ccc(Cl)c(NC(=O)COC(=O)C(O)(c2ccccc2)c2ccccc2)c1	inactive: -11%
COc1ccc(N/C(=N/P(=O)(N2CCOCC2)N2CCOCC2)N2CCOCC2)cc1	inactive: -9.08%
COc1ccc2nc(NP(=O)(c3ccccc3)c3ccccc3)sc2c1	inactive: 9.27%
COc1cc(I)ccc1[As](=O)(O)O	inactive: 2.48%

Structure (SMILES)	potentiation
Cc1c2c(nc3ccccc13)SC(C(Cl)Cl)C2 (stereo unspecified)	inactive: -21.8%
O=C(OC1CN2CCC1CC2)C12CC3CC(CC(C3)C1)C2 (stereo unspecified)	inactive: -0.715%
Cc1cc(=O)[nH]c(N[N+](=O)[O-])n1	inactive: -6.42%
CCN(CC)C(=S)SC(NC=O)C(Cl)(Cl)Cl (stereo unspecified)	inactive: -9.82%
CC(C)NC(=O)NP(=O)(Oc1ccccc1)Oc1ccccc1	inactive: -4.37%
O=[N+]([O-])c1cc([N+](=O)[O-])c(-c2ccn[nH]2)s1	inactive: 10.2%
CC(C)c1ccc(OP(=O)(Nc2ccccn2)Oc2ccccc2F)cc1 (stereo unspecified)	inactive: -0.372%
Cc1ccc(OP(=O)(Nc2ccc([N+](=O)[O-])cn2)Oc2ccc(C)cc2)cc1	inactive: 11.2%
Cc1ccc2nc3c(c(C)c2c1)CC(C(Cl)Cl)S3 (stereo unspecified)	inactive: -2.5%
O=[As](O)(c1ccc(O)cc1)c1ccccc1O	inactive: 2.32%
C[As](=O)(O)c1cccc(C(=O)O)c1	inactive: 8.38%
O=P(Nc1ccccn1)(c1cccc2ccccc12)c1cccc2ccccc12	inactive: 2.06%
O=[N+]([O-])c1ccc(Nc2ccc(Oc3ccc([N+](=O)[O-])cc3[N+](=O)[O-])cc2)c([N+](=O)[O-])c1	inactive: -5.53%
CCOC(=O)Nc1cccc([As](=O)(O)O)c1	inactive: 8.07%
CCCCOc1ccc(C(=O)NCC2(N3CCCCC3)CCCCC2)cc1OC	inactive: -11.9%
Cc1cc(SC(NC(=O)c2ccccc2)C(Cl)(Cl)Cl)nc(C(C)C)n1 (stereo unspecified)	inactive: -4.35%
CCOC(=O)Nc1ccc([As](=O)(O)O)c(O)c1	inactive: -4.04%
CCC(C)N(CC(C)C)C(=S)SC(NC(C)=O)C(Cl)(Cl)Cl (stereo unspecified)	inactive: 12.7%
O=C(OC1CN2CCC1CC2)c1cccc([N+](=O)[O-])c1 (stereo unspecified)	inactive: 3.37%
CCOC(=O)c1ccc(NC(=O)C(C)(CCl)SC)cc1 (stereo unspecified)	inactive: 7.97%
O=C(COc1ccccc1)OC1CN2CCC1CC2 (stereo unspecified)	inactive: -6.21%
O=C(Nc1ccncc1[N+](=O)[O-])c1ccc([N+](=O)[O-])cc1[N+](=O)[O-]	inactive: 8.35%
COP1(=S)c2c(C)nn(CCC#N)c2N=C(c2ccc(F)cc2)N1C (stereo unspecified)	inactive: 7.97%

Source: PubChem BioAssay AID485347 (National Center for Advancing Translational Sciences (NCATS), 2010)
